ChEMBL document CHEMBL3885881, “DrugMatrix”

Experiments:
Rattus norvegicus [1] = species: Rattus norvegicus; experiment: DrugMatrix - Regimen: Daily Repeat; assay type: toxicity, organism-based, Sprague-Dawley; design: regimen Daily Repeat, gender Male, age 6-8 weeks; conditions: in vivo, vehicle 100 % SALINE; for HEMATOCRIT / MONOCYTE / NEUTROPHIL / ABSOLUTE BASOPHIL / ABSOLUTE EOSINOPHIL / ABSOLUTE LYMPHOCYTE / ABSOLUTE MONOCYTE / ABSOLUTE SEGMENTED NEUTROPHIL / BASOPHIL / EOSINOPHIL / ERYTHROCYTE COUNT / HEMOGLOBIN / LEUKOCYTE COUNT / LYMPHOCYTE / MEAN CORPUSCULAR HEMOGLOBIN / MEAN CORPUSCULAR HEMOGLOBIN CONCENTRATION / MEAN CORPUSCULAR VOLUME / NUCLEATED RED BLOOD CELLS / PLATELET COUNT: tissue Blood; for TOTAL BILIRUBIN / URIC ACID / GLUCOSE / ALANINE AMINOTRANSFERASE / ALBUMIN / ALKALINE PHOSPHATASE / ASPARTATE AMINOTRANSFERASE / BLOOD UREA NITROGEN / CARBON DIOXIDE / CHLORIDE / CHOLESTEROL / CREATINE PHOSPHOKINASE / CREATININE / LACTATE DEHYDROGENASE / LIPASE / PHOSPHORUS / POTASSIUM / SODIUM / TOTAL PROTEIN: tissue Plasma
Rattus norvegicus [2] = species: Rattus norvegicus; assay type: toxicity, organism-based, Sprague-Dawley; conditions: in vivo, sc, 0 mg/kg, 24 h, route mini-PUMP - SUBCUTANEOUS, dose level Control, time 1 day, vehicle 100 % SALINE
[3] = iv, 0.004 mg/kg, 72 h, dose level Low, time 3 day
[4] = iv, 0.004 mg/kg, 120 h, dose level Low, time 5 day
[5] = iv, 0.0375 mg/kg, 72 h, dose level M1, time 3 day
[6] = iv, 0.0375 mg/kg, 120 h, dose level M1, time 5 day
[7] = sc, 0 mg/kg, 72 h, route mini-PUMP - SUBCUTANEOUS, dose level Control, time 3 day
[8] = sc, 0 mg/kg, 120 h, route mini-PUMP - SUBCUTANEOUS, dose level Control, time 5 day
[9] = sc, 0 mg/kg, […], route mini-PUMP - SUBCUTANEOUS, dose level Control, time 14 day
[10] = sc, […], route mini-PUMP - SUBCUTANEOUS, dose 0.77 mg/Kg, dose level High, time 14 day

CNC[C@H](O)c1ccc(O)c(O)c1 [EPINEPHRINE]
HEMATOCRIT (Rattus norvegicus [1]; [3]): 37.23% | MONOCYTE (Rattus norvegicus [1]; [3]): 0% | NEUTROPHIL (Rattus norvegicus [1]; [3]): 7% | TOTAL BILIRUBIN (Rattus norvegicus [1]; [3]): 0.17 mg/dL | URIC ACID (Rattus norvegicus [1]; [3]): 1.63 mg/dL | HEMATOCRIT (Rattus norvegicus [1]; [4]): 35.47% | MONOCYTE (Rattus norvegicus [1]; [4]): 0% | NEUTROPHIL (Rattus norvegicus [1]; [4]): 11.67% | GLUCOSE (Rattus norvegicus [1]; [4]): 170.67 mg/dL | TOTAL BILIRUBIN (Rattus norvegicus [1]; [4]): 0.17 mg/dL | URIC ACID (Rattus norvegicus [1]; [4]): 2.3 mg/dL | ABSOLUTE BASOPHIL (Rattus norvegicus [1]; [5]): 0 CELLS/uL | ABSOLUTE EOSINOPHIL (Rattus norvegicus [1]; [5]): 88 CELLS/uL | ABSOLUTE LYMPHOCYTE (Rattus norvegicus [1]; [5]): 7423.33 CELLS/uL | ABSOLUTE MONOCYTE (Rattus norvegicus [1]; [5]): 0 CELLS/uL | ABSOLUTE SEGMENTED NEUTROPHIL (Rattus norvegicus [1]; [5]): 1222 CELLS/uL | BASOPHIL (Rattus norvegicus [1]; [5]): 0% | EOSINOPHIL (Rattus norvegicus [1]; [5]): 1% | ERYTHROCYTE COUNT (Rattus norvegicus [1]; [5]): 5.23 x10E6/uL | HEMATOCRIT (Rattus norvegicus [1]; [5]): 32.57% | HEMOGLOBIN (Rattus norvegicus [1]; [5]): 12.4 G/DL | LEUKOCYTE COUNT (Rattus norvegicus [1]; [5]): 8.73 x10E3/uL | LYMPHOCYTE (Rattus norvegicus [1]; [5]): 85% | MEAN CORPUSCULAR HEMOGLOBIN (Rattus norvegicus [1]; [5]): 23.73 pg | MEAN CORPUSCULAR HEMOGLOBIN CONCENTRATION (Rattus norvegicus [1]; [5]): 38.1 G/DL | MEAN CORPUSCULAR VOLUME (Rattus norvegicus [1]; [5]): 62.33 fL | MONOCYTE (Rattus norvegicus [1]; [5]): 0% | NEUTROPHIL (Rattus norvegicus [1]; [5]): 14% | NUCLEATED RED BLOOD CELLS (Rattus norvegicus [1]; [5]): 0 /100WBC | PLATELET COUNT (Rattus norvegicus [1]; [5]): 1430.67 x10E3/uL | ALANINE AMINOTRANSFERASE (Rattus norvegicus [1]; [5]): 51 u/L | ALBUMIN (Rattus norvegicus [1]; [5]): 4.2 G/DL | ALKALINE PHOSPHATASE (Rattus norvegicus [1]; [5]): 368.67 u/L | ASPARTATE AMINOTRANSFERASE (Rattus norvegicus [1]; [5]): 89 u/L | BLOOD UREA NITROGEN (Rattus norvegicus [1]; [5]): 13.67 mg/dL | CARBON DIOXIDE (Rattus norvegicus [1]; [5]): 28.33 mmol/L | CHLORIDE (Rattus norvegicus [1]; [5]): 102.67 MEQ/L | CHOLESTEROL (Rattus norvegicus [1]; [5]): 75.33 mg/dL | CREATINE PHOSPHOKINASE (Rattus norvegicus [1]; [5]): 191.67 u/L | CREATININE (Rattus norvegicus [1]; [5]): 0.17 mg/dL | GLUCOSE (Rattus norvegicus [1]; [5]): 140.67 mg/dL | LACTATE DEHYDROGENASE (Rattus norvegicus [1]; [5]): 94.67 u/L | LIPASE (Rattus norvegicus [1]; [5]): 9 u/L | PHOSPHORUS (Rattus norvegicus [1]; [5]): 11.47 mg/dL | POTASSIUM (Rattus norvegicus [1]; [5]): 5.84 MEQ/L | SODIUM (Rattus norvegicus [1]; [5]): 150.1 MEQ/L | TOTAL BILIRUBIN (Rattus norvegicus [1]; [5]): 0.1 mg/dL | TOTAL PROTEIN (Rattus norvegicus [1]; [5]): 6 G/DL | URIC ACID (Rattus norvegicus [1]; [5]): 0.63 mg/dL | ABSOLUTE BASOPHIL (Rattus norvegicus [1]; [6]): 0 CELLS/uL | ABSOLUTE EOSINOPHIL (Rattus norvegicus [1]; [6]): 53.33 CELLS/uL | ABSOLUTE LYMPHOCYTE (Rattus norvegicus [1]; [6]): 13463.33 CELLS/uL | ABSOLUTE MONOCYTE (Rattus norvegicus [1]; [6]): 0 CELLS/uL | ABSOLUTE SEGMENTED NEUTROPHIL (Rattus norvegicus [1]; [6]): 1616.67 CELLS/uL | BASOPHIL (Rattus norvegicus [1]; [6]): 0% | EOSINOPHIL (Rattus norvegicus [1]; [6]): 0.33% | ERYTHROCYTE COUNT (Rattus norvegicus [1]; [6]): 5.77 x10E6/uL | HEMATOCRIT (Rattus norvegicus [1]; [6]): 36.07% | HEMOGLOBIN (Rattus norvegicus [1]; [6]): 13.67 G/DL | LEUKOCYTE COUNT (Rattus norvegicus [1]; [6]): 15.13 x10E3/uL | LYMPHOCYTE (Rattus norvegicus [1]; [6]): 89% | MEAN CORPUSCULAR HEMOGLOBIN (Rattus norvegicus [1]; [6]): 23.7 pg | MEAN CORPUSCULAR HEMOGLOBIN CONCENTRATION (Rattus norvegicus [1]; [6]): 37.9 G/DL | MEAN CORPUSCULAR VOLUME (Rattus norvegicus [1]; [6]): 62.57 fL | MONOCYTE (Rattus norvegicus [1]; [6]): 0% | NEUTROPHIL (Rattus norvegicus [1]; [6]): 10.67% | NUCLEATED RED BLOOD CELLS (Rattus norvegicus [1]; [6]): 0 /100WBC | PLATELET COUNT (Rattus norvegicus [1]; [6]): 1337 x10E3/uL | ALANINE AMINOTRANSFERASE (Rattus norvegicus [1]; [6]): 49.67 u/L | ALBUMIN (Rattus norvegicus [1]; [6]): 4.37 G/DL | ALKALINE PHOSPHATASE (Rattus norvegicus [1]; [6]): 404 u/L | ASPARTATE AMINOTRANSFERASE (Rattus norvegicus [1]; [6]): 70 u/L | BLOOD UREA NITROGEN (Rattus norvegicus [1]; [6]): 17.33 mg/dL | CARBON DIOXIDE (Rattus norvegicus [1]; [6]): 28 mmol/L | CHLORIDE (Rattus norvegicus [1]; [6]): 102.67 MEQ/L | CHOLESTEROL (Rattus norvegicus [1]; [6]): 68 mg/dL | CREATINE PHOSPHOKINASE (Rattus norvegicus [1]; [6]): 147.67 u/L | CREATININE (Rattus norvegicus [1]; [6]): 0.16 mg/dL | LACTATE DEHYDROGENASE (Rattus norvegicus [1]; [6]): 75 u/L | LIPASE (Rattus norvegicus [1]; [6]): 8.67 u/L | PHOSPHORUS (Rattus norvegicus [1]; [6]): 13.17 mg/dL | POTASSIUM (Rattus norvegicus [1]; [6]): 6.55 MEQ/L | SODIUM (Rattus norvegicus [1]; [6]): 147.57 MEQ/L | TOTAL BILIRUBIN (Rattus norvegicus [1]; [6]): 0.17 mg/dL | TOTAL PROTEIN (Rattus norvegicus [1]; [6]): 6.03 G/DL | URIC ACID (Rattus norvegicus [1]; [6]): 1.87 mg/dL | HEMATOCRIT (Rattus norvegicus [1]; [7]): 36.95% | MONOCYTE (Rattus norvegicus [1]; [7]): 2% | NEUTROPHIL (Rattus norvegicus [1]; [7]): 10.33% | GLUCOSE (Rattus norvegicus [1]; [7]): 136.83 mg/dL | URIC ACID (Rattus norvegicus [1]; [7]): 1.4 mg/dL | HEMATOCRIT (Rattus norvegicus [1]; [8]): 36.22% | NEUTROPHIL (Rattus norvegicus [1]; [8]): 17.67% | CREATININE (Rattus norvegicus [1]; [8]): 0.16 mg/dL | GLUCOSE (Rattus norvegicus [1]; [8]): 152.67 mg/dL | TOTAL BILIRUBIN (Rattus norvegicus [1]; [8]): 0.17 mg/dL | URIC ACID (Rattus norvegicus [1]; [8]): 1.27 mg/dL | HEMATOCRIT (Rattus norvegicus [1]; [9]): 35.4% | MONOCYTE (Rattus norvegicus [1]; [9]): 2.17% | GLUCOSE (Rattus norvegicus [1]; [9]): 182.33 mg/dL | URIC ACID (Rattus norvegicus [1]; [9]): 1.38 mg/dL | HEMATOCRIT (Rattus norvegicus [1]; [10]): 39.46% | MONOCYTE (Rattus norvegicus [1]; [10]): 2.4% | NEUTROPHIL (Rattus norvegicus [1]; [10]): 12.6% | GLUCOSE (Rattus norvegicus [1]; [10]): 180.4 mg/dL | URIC ACID (Rattus norvegicus [1]; [10]): 1.42 mg/dL | HEMATOCRIT (Rattus norvegicus [2]; tissue Blood): 34.52% | GLUCOSE (Rattus norvegicus [2]; tissue Plasma): 179.83 mg/dL
